Earlier results as cited in US12421221B2 (ONCOBIX CO., LTD., priority 2019, dated 2025).

Test system: ALK positive NSCLC
Settings: clinical study, cited from earlier work

C[C@@H](Oc1cc(-c2cnn(C3CCNCC3)c2)cnc1N)c1c(Cl)ccc(F)c1Cl [Crizotinib, crizotinib]
progress-free survival (lung cancer patients (3 months of chemotherapeutic group)): 7.7 months
tumor response rate (lung cancer patients): about 65%
